The nature of experiment [1]: Bare SWNT-FET device response to vapors (source-drain current). The conditions noted are these: saturated vapor at 25° C., 1 atm: TNT 12 ppb, RDX 6.6 ppt, HPT 2100 ppm; gate and source-drain bias −0.5 and 0.2V.
Experiment [2] relates to P1ASP1C-functionalized SWNT-FET device. In words: P1ASP1C-functionalized SWNT-FET device response to vapors (source-drain current). As to conditions: saturated vapor at 25° C., 1 atm: TNT 12 ppb, RDX 6.6 ppt, HPT 2100 ppm; gate and source-drain bias −0.5 and 0.2V.

Consider `CCCCCC(C)=O`, for which, in experiment [1], the “change of source-drain current (ISD) of bare SWNT-FET upon vapor exposure” value was “decreased”. The “change of source-drain current (ISD) of P1ASP1C-functionalized SWNT-FET upon vapor exposure” value in experiment [2] is given as “decrease in the ISD that was similar to that seen with the bare SWNT-FET”.

Values taken from patent US8716029B1, “Carbon nanotube sensors employing synthetic multifunctional peptides for surface functionalization” (dated 2014).
